Results from ChEMBL document CHEMBL6071202, “Design, Synthesis, and Biological Evaluation of 3-Amino-pyrazine-2-carboxamide Derivatives as Novel FGFR Inhibitors” (ACS Med Chem Lett, 2024).

Amino acid sequences for entries named in this document (tags omitted).
UniProt Q61851, whole entry, looked up: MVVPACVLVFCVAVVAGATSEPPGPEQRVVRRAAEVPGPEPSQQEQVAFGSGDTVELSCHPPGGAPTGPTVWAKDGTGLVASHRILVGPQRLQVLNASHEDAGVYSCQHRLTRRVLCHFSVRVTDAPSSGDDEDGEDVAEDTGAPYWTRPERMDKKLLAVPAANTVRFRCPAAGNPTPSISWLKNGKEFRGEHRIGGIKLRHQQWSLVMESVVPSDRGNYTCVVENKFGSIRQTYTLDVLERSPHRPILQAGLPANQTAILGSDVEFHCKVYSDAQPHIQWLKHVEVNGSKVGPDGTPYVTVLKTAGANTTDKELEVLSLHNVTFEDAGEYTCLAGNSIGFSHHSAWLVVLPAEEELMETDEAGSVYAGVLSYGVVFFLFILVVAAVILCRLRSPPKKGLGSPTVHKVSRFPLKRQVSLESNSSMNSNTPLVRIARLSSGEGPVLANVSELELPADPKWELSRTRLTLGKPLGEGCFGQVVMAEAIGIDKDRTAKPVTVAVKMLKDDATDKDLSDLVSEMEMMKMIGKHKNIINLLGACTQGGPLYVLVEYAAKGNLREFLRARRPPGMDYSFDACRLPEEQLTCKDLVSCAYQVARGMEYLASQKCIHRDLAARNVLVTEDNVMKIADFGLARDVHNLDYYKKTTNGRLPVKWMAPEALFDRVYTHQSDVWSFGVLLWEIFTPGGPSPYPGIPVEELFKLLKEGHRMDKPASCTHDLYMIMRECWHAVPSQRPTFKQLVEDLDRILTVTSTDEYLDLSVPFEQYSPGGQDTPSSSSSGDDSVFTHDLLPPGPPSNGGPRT
UniProt P21803, whole entry: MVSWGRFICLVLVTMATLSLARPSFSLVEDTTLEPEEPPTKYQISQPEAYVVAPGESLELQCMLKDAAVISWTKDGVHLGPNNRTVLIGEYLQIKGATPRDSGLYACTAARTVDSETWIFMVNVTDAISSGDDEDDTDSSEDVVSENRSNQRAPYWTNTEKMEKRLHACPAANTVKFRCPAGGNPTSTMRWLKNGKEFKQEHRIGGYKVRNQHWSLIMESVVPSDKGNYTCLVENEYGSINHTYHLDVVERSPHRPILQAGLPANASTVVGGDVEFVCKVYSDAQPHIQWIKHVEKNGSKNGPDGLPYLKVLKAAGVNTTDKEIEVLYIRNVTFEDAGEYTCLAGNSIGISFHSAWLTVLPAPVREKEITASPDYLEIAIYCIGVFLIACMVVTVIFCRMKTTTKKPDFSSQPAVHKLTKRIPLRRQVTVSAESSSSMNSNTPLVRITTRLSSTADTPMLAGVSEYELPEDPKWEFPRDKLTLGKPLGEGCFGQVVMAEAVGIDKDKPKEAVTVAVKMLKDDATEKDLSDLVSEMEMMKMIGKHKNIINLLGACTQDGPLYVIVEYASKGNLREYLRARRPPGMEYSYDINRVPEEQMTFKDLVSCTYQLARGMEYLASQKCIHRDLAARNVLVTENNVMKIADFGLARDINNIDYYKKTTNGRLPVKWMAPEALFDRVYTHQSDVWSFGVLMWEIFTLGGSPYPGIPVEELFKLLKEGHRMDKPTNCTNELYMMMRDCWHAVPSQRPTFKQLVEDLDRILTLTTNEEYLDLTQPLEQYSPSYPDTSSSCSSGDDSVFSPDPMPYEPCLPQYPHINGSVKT
UniProt P16092, whole entry: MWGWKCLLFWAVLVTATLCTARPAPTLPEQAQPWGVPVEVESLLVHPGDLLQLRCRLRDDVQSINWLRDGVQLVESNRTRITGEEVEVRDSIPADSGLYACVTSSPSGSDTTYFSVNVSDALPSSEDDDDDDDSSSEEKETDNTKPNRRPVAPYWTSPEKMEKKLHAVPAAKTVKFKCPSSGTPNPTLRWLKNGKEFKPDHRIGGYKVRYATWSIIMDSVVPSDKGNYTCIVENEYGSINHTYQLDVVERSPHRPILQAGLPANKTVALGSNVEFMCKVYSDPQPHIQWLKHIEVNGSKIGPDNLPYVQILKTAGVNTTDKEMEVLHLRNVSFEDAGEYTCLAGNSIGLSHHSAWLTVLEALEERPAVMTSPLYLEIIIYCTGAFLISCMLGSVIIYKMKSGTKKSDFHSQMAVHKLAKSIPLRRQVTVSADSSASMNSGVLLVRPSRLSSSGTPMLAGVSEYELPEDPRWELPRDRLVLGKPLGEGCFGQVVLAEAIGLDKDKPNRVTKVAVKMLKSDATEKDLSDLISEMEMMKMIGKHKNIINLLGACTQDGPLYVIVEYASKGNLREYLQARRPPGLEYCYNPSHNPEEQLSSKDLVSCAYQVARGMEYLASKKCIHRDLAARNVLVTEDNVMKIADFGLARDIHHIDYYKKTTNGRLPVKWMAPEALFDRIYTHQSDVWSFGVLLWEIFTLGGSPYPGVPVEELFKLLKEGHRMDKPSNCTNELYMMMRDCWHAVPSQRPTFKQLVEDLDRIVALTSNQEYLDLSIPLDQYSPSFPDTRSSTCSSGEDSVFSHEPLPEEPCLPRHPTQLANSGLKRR

Tests used:
Type in all cases: cell-based
Details in all cases: BaF3
[1] = target: Fibroblast growth factor receptor 3 (Mus musculus) (UniProt Q61851); assay: Inhibition of FGFR3 phosphorylation at Tyr653/654 residues in mouse Ba/F3 cells transfected with TEL-fused FGFR3 by Western blotting analysis
[2] = target: Fibroblast growth factor receptor 2 (Mus musculus) (UniProt P21803); assay: Inhibition of FGFR2 in mouse Ba/F3 cells transfected with TEL-fused FGFR2 assessed as reduction in ERK1/2 phosphorylation at Thr202/Tyr204 residues by Western blotting analysis
[3] = target: Fibroblast growth factor receptor 2 (Mus musculus) (UniProt P21803); assay: Inhibition of FGFR2 phosphorylation at Tyr653/654 residues in mouse Ba/F3 cells transfected with TEL-fused FGFR2 by Western blotting analysis
[4] = target: Fibroblast growth factor receptor 1 (Mus musculus) (UniProt P16092); assay: Inhibition of FGFR1 phosphorylation at Tyr653/654 residues in mouse Ba/F3 cells transfected with TEL-fused FGFR1 by Western blotting analysis
[5] = target: Fibroblast growth factor receptor 3 (Mus musculus) (UniProt Q61851); assay: Inhibition of FGFR3 in mouse Ba/F3 cells transfected with TEL-fused FGFR3 assessed as reduction in ERK1/2 phosphorylation at Thr202/Tyr204 residues by Western blotting analysis
[6] = target: Fibroblast growth factor receptor 1 (Mus musculus) (UniProt P16092); assay: Inhibition of FGFR1 in mouse Ba/F3 cells transfected with TEL-fused FGFR1 assessed as reduction in ERK1/2 phosphorylation at Thr202/Tyr204 residues by Western blotting analysis

Measured: inhibition

Nc1ncc(-c2ccc(CN3CCS(=O)(=O)CC3)cc2)nc1C(=O)Nc1cc(O)cc(O)c1
active: [1] Dose-Dependent Effect | [2] Dose-Dependent Effect | [3] Dose-Dependent Effect | [4] Dose-Dependent Effect | [5] Dose-Dependent Effect | [6] Dose-Dependent Effect
